Assay results as given in article PMC12528898 (The Journal of Biological Chemistry, 2025).

B2: mNeon PPM1H (full-length PPM1H with mNeon inserted into loop 1 at position 125) (enzyme, human, UniProt Q9ULR3 1-514, looked up)
chain: MLTRVKSAVANFMGGIMAGSSGSEHGGGSCGGSDLPLRFPYGRPEFLGLSQDEVECSADHIARPILILKETRRLPWATGYAEVINAGKSTHNEDQASCEVLTVKKKAGAVTSTPNRNSSKRRSSLPNGEGLQLKENSESEGVSCHYWSLFDGHAGSGAAVVASRLLQHHITEQLQDIVDILKNSAVLPPTCLGEEPENTPANSRTLTRAASLRGGVGAPGSPSTPPTRFFTEKKIPHECLVIGALESAFKEMDLQIERERSSYNISGGCTALIVICLLGKLYVANAGDSRAIIIRNGEIIPMSSEFTPETERQRLQYLAFMQPHLLGNEFTHLEFPRRVQRKELGKKMLYRDFNMTGWAYKTIEDEDLKFPLIYGEGKKARVMATIGVTRGLGDHDLKVHDSNIYIKPFLSSAPEVRIYDLSKYDHGSDDVLILATDGLWDVLSNEEVAEAITQFLPNCDPDDPHRYTLAAQDLVMRARGVLKDRGWRISNDRLGSGDDISVYVIPLIHGNKLS
notes: PPM1H phosphatase, human, full length; mNeon inserted into loop 1 (residues 115-133) at position 125; the plasmid is pET15b His SUMO mNeon PPM1H; His-SUMO removed by Ulp1 before gel filtration; also called WT PPM1H; HisSUMO-mNeon PPM1H; not shown: mNeon, internal (loop 1, at position 125), kept

Experiments:
mNeon L66R PPM1H (human) = mNeon L66R PPM1H (human) (UniProt Q9ULR3); test: MST; unlabelled Rab protein (16 serial dilutions) titrated against 100 nM fluorescent mNeon PPM1H variant; 30 min in the dark; Monolith NT.115; three independent measurements with different protein preparations
mNeon Δ37 PPM1H (human) = mNeon Δ37 PPM1H (human) (UniProt Q9ULR3); test: as above
[1] = biological target: B2; test: MST; WT Rab8A loaded with Mg-GDP (EDTA exchange), serially diluted against 100 nM mNeon PPM1H; details: both partners purified
[2] = biological target: B2; test: MST; WT Rab8A loaded with Mg-GTP (EDTA exchange), serially diluted against 100 nM mNeon PPM1H; details: both partners purified
[3] = biological target: the molecule itself; test: SEC; gel filtration (Superdex 200) of purified mNeon PPM1H after removal of His-SUMO

B1: Rab8A WT (full length, nonprenylated), loaded with GTP or GDP (natural protein, human, UniProt P61006 1-207, looked up)
chain: MAKTYDYLFKLLLIGDSGVGKTCVLFRFSEDAFNSTFISTIGIDFKIRTIELDGKRIKLQIWDTAGQERFRTITTAYYRGAMGIMLVYDITNEKSFDNIRNWIRNIEEHASADVEKMILGNKCDVNDKRQVSKERGEKLALDYGIKFMETSAKANINVENAFFTLARDIKAKMDKKLEGNSPQGSNQGVKITPDQQKRSSFFRCVLL
Kd [1]: 3000 nM
Kd [2]: 1000 nM

Molecule: B2
stoichiometry N [3]: 2

Further lines, results first:

Kd (mNeon L66R PPM1H (human)): 5200 nM
Kd (mNeon Δ37 PPM1H (human)): 10500 nM
Molecule: His Rab8A Q67L (full length, nonprenylated, nonphosphorylated) (from UniProt P61006 1-207) (natural protein)

Kd (mNeon L66R PPM1H (human)): 1100 nM
Molecule: Thiophosphorylated His Rab8A Q67L (from UniProt P61006 1-207) (natural protein)

One block for each molecule: values may come before it.
